The test system of this assay is wild type IPO323 M. graminicola strain. The assay is classed as cell-based, Mycosphaerella graminicola. The settings on record: minimal concentration to fully inhibit growth of WT IPO323, AE agar, 10^7 cells, 2 weeks at 20°C in the dark. From the text:
Selection plates were produced after adding 1% of a 100× DMSO solution of the active ingredients to pre-melted AE-agar.
For `O=C(NCCc1ncc(C(F)(F)F)cc1Cl)c1ccccc1C(F)(F)F` [Fluopyram], the “Minimal selective concentration (MSC)” value was “Fluopyram 25 µM (MSC)”.
Next, `O=C(Nc1ccccc1-c1ccc(Cl)cc1)c1cccnc1Cl` [Boscalid]: “Boscalid 30 µM (MSC)”; `CC1=C(C(=O)Nc2ccccc2)SCCO1` [Carboxin]: “Carboxin 85 µM (MSC)”.
